## Apparent affinities of Ab-14 variants for a coronavirus HR2 peptide

Binding partner: SARS-CoV-2 spike HR2 peptide, sequence PDVDLGDISGINAS.

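The parent was found by panning a naive human phage display library on the peptide. AAYL50 was designed without a model: most single CDR substitutions and a random sample of double and triple ones. The assay is AlphaSeq: two haploid yeast populations carry antibody and antigen on their surface. The frequency of each diploid, read from paired DNA barcodes, reflects how well the two displayed proteins bind. Each replicate has its own calibration line, from reference interactions of the BCL2 family. The assay was run in three technical replicates.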

Ab-14 is the parent antibody, in scFv form: VH, then three GGGGS repeats, then VL. The heavy chain is unchanged in all variants.
VH: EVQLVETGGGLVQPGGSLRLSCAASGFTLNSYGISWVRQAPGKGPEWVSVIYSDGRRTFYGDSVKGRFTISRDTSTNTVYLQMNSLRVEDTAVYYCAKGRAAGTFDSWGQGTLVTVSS
VL: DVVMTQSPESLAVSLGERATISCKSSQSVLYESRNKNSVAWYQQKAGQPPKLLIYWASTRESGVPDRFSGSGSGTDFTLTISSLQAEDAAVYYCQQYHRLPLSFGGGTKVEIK

Changes read parent residue, position, new residue, counted from the first residue of the VL shown. The read-out is the apparent dissociation constant on a log10 scale (nM): the lower, the stronger. Averages over replicates are reported, and they cover detected replicates only. "ND" means that the variant was in the library but no mating with the target was seen in that replicate; the authors take this as a sign of poor binding, and no number exists. For reference, the parent read 0.65 as the reference entry and 1.68 as a member of this library. Nonspecific signal, from three strains lacking the peptide, appeared in 18% of pairings of library AAYL50, centred on 4.19 (5% of these signals below 2.99); values are not corrected for it. Also given: how often the same scFv was detected with the empty control strains, with their mean in brackets.

changes | log10 Kd (nM) by replicate | mean log10 Kd (nM) | signal with controls
N37Y W56Q H98F | 0.13 0.42 0.35 | 0.30 | 4 of 9 (4.68)
S33P H98V R99I | 0.77 1.06 0.82 | 0.88 | 3 of 9 (4.86)
R34Y S58Y P101S | ND ND ND | ND | 2 of 9 (4.65)
S28W L102P S103I | 0.93 ND 2.01 | 1.47 | 0 of 9
N37L S62H P101W | ND ND ND | ND | 0 of 9
S25R Y97Q P101K | 2.15 2.08 2.63 | 2.29 | 3 of 9 (3.92)
V29P P101M L102P | 1.96 1.87 1.80 | 1.88 | 2 of 9 (3.72)
E32N S58G Y97E | ND 4.00 ND | 4.00 | 2 of 9 (4.29)
T59F L100Y S103V | 1.05 1.36 1.31 | 1.24 | 1 of 9 (5.34)
N35E W56Q S62K | 0.69 0.88 0.81 | 0.79 | 5 of 9 (4.64)
S25C V29Q V39F | 2.54 2.68 3.76 | 2.99 | 3 of 9 (4.58)
K36D Q95K P101C | ND ND ND | ND | 3 of 9 (3.92)
R60V | ND ND ND | ND | 0 of 9
S25N L100H | ND ND 5.18 | 5.18 | 1 of 9 (3.11)
S28G L30M T59H | 1.29 1.44 1.37 | 1.37 | 2 of 9 (3.53)
Q27T N35Q Q96F | 3.13 1.97 2.10 | 2.40 | 3 of 9 (3.51)
V39P W56L S58H | ND ND ND | ND | 1 of 9 (5.29)
Y31Q R60N Q95V | ND ND ND | ND | 0 of 9
Y31N S33P R60I | 0.97 0.78 0.79 | 0.84 | 1 of 9 (4.47)
S33R S38L Q96D | ND 4.22 ND | 4.22 | 2 of 9 (3.84)
S33M S38N Q95Y | 3.95 3.72 ND | 3.83 | 3 of 9 (3.93)
Q27N V39P A57M | ND ND 6.35 | 6.35 | 2 of 9 (4.22)
S26E L30T R34T | 0.22 0.46 0.36 | 0.35 | 4 of 9 (4.85)
S25R Q27I S28M | ND ND 4.26 | 4.26 | 1 of 9 (4.35)
R34Y N37C Q95A | 2.02 1.90 2.43 | 2.12 | 2 of 9 (3.85)
S26P L30T N35W | 1.48 1.88 2.25 | 1.87 | 0 of 9
K36L S38K S103H | ND 2.85 4.08 | 3.46 | 3 of 9 (4.33)
S26Y S33C H98P | ND 4.21 3.35 | 3.78 | 2 of 9 (4.01)
Q27H Y31W K36I | 0.99 1.42 1.19 | 1.20 | 3 of 9 (4.21)
L100R | ND ND ND | ND | 1 of 9 (4.08)
S26Q V39S L102R | ND ND ND | ND | 2 of 9 (3.49)
Y31Q R34W | 0.52 0.70 0.22 | 0.48 | 0 of 9
K24E T59G | ND ND ND | ND | 5 of 9 (4.37)
S25A S33L Q96S | 2.61 3.64 2.97 | 3.07 | 2 of 9 (3.41)
Y31Q K36W | 6.21 3.27 ND | 4.74 | 5 of 9 (4.22)
Y31F S33T A40W | ND ND ND | ND | 1 of 9 (3.29)
Q27S W56S L100S | 0.59 0.77 0.61 | 0.65 | 0 of 9
S25D L30E L100S | 2.55 2.02 2.21 | 2.26 | 3 of 9 (4.85)
K36A | 1.18 1.21 1.33 | 1.24 | 0 of 9
S28K W56D S103W | 0.80 1.11 0.83 | 0.91 | 2 of 9 (2.84)
V29D S33I N37W | 2.14 1.28 1.83 | 1.75 | 0 of 9
S28K L102Y | 1.46 1.39 1.73 | 1.53 | 1 of 9 (2.60)
E32V S38G W56N | 1.31 1.40 1.29 | 1.33 | 7 of 9 (4.40)
K36L V39G E61Y | ND ND ND | ND | 1 of 9 (3.86)
S33K R34E E61S | 0.23 0.47 0.31 | 0.34 | 2 of 9 (3.96)

The measurements come from Engelhart et al. 2022 (doi:10.1038/s41597-022-01779-4) through the FLAb antibody collection.